Reference: patent US10517862B2, “Fused heterocyclic compound derivative and application thereof” (NHWA PHARMA. CORPORATION, priority 2015, dated 2019)

Test system: mice of Kunming breed
Conditions: mouse, in vivo

## Cc1nc2n(c(=O)c1CCN1CCC(c3noc4cc(F)ccc34)CC1)CCCC2 [risperidone]
  EPS at effective dosage (in words): did not cause EPS at effective dosage
